This assay deals with T1, Mitogen-activated protein kinase 13 (Homo sapiens) (UniProt O15264).
T1 sequence (whole entry): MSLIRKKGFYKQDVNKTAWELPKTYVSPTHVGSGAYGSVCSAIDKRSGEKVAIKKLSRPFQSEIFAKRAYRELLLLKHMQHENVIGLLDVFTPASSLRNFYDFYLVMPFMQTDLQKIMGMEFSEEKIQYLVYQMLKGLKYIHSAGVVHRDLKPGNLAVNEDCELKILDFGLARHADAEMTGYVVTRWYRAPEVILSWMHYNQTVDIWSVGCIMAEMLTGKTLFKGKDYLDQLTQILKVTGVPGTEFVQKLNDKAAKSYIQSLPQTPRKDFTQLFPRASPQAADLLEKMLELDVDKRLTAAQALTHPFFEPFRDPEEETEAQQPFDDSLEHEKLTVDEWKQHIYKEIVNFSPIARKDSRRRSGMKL
The conditions noted are these: at 0.1 µM.

This is a selection; strong and weak results do not stand in their true shares.
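Further: reported value is the mean percent inhibition of p38delta.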

With `O=C1Nc2ccc(I)cc2C1=Cc1cc(Br)c(O)c(Br)c1`, the inhibition (usually the change of the read-out against control, counted positive when it falls) was 3.02%.

The values are drawn from ChEMBL document CHEMBL1961873, “Compounds: GSK PKIS; Assays: Nanosyn kinase panel” (2012).
